Experimental findings from ChEMBL document CHEMBL4043239, “Discovery and optimization of oxadiazole-based FLAP inhibitors” (Bioorg Med Chem Lett, 2017) are described below.

By UniProt entry, the sequences of proteins in these tests, tags left out. Where a name states a change or a piece, a line headed by the entry shows the natural chain unless it says otherwise.
UniProt P20292: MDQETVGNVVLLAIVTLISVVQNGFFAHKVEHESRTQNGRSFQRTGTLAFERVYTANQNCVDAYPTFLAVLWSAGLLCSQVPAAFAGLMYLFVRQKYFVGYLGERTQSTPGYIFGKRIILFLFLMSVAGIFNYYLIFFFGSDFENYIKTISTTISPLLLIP

The assay addresses Arachidonate 5-lipoxygenase-activating protein (Homo sapiens, UniProt P20292). The experiment in a line: Displacement of [125I]-L-691831 from human FLAP expressed in Sf9 cell membranes after 2 hrs by Topcount method. On the technique in general: Displacement assays read how much labelled ligand stays bound in the presence of the test substance.

In general, IC50 refers to the concentration that gives 50% inhibition. A higher IC50 goes with weaker potency in that assay. `CC(C)(C)NC(=O)Cn1cc(-c2nc(C3(c4ccc(-c5cnc(N)nc5)cc4)CCC3)no2)cn1` showed an IC50 of 3.7 nM.
